This test concerns the target Wee1A kinase (CDK1 Tyr15 phosphorylation in ACHN renal cell carcinoma cells) (Homo sapiens, UniProt P30291). Description: High-content imaging of pCdk1 Y15, Wee1A kinase target engagement in ACHN cells. Particulars: read-out: CDK1 Tyr15 Phosphorylation EC50, 4 h treatment, nuclear positivity for pCdk1 Y15 vs DMSO control. How it is done: Each of an ACHN renal cell carcinoma cell line (ATCC) and a DAOY medulloblastoma cell line, and an A427 lung cancer line were cultured in Minimum Essential Medium Eagle supplemented with 10% fetal calf serum (Sigma), 1% Penicillin-Streptomycin and 10 mM HEPES buffer (HyClone). Cell cultures were kept in a humidified incubator at 37 °C and 5% CO2. Cells were routinely tested for Mycoplasma contamination.
For target engagement assessment of Wee1A kinase inhibition, high-content imaging of ACHN renal cell carcinoma cells was used for quantification of CDK1 phosphorylated on tyrosine 15 by immunofluorescence (“IF”). 20,000 cells per well were seeded in tissue culture treated 96 well plates and treated with compounds at concentrations ranging from 7 to 5,000 nM or from 0.3 to 200 nM for 4h. Cells were fixated for 15 minutes in 4% paraformaldehyde solution, washed in PBS and permeabilized using 0.2% Triton X-100. […] The percentage of cells with nuclear positivity for pCdk1 Y^15 compared to DMSO control was determined for each well and drug dose response curves and EC50 values were calculated and visualized using GraphPad Prism. Target engagement for Wee1A kinase can also be measured using the same AlphaLISA assay in OVCAR3 cells, an ovarian cancer cell line. […]

By UniProt entry, the sequences of proteins in these tests, tags left out.
UniProt P30291, whole entry: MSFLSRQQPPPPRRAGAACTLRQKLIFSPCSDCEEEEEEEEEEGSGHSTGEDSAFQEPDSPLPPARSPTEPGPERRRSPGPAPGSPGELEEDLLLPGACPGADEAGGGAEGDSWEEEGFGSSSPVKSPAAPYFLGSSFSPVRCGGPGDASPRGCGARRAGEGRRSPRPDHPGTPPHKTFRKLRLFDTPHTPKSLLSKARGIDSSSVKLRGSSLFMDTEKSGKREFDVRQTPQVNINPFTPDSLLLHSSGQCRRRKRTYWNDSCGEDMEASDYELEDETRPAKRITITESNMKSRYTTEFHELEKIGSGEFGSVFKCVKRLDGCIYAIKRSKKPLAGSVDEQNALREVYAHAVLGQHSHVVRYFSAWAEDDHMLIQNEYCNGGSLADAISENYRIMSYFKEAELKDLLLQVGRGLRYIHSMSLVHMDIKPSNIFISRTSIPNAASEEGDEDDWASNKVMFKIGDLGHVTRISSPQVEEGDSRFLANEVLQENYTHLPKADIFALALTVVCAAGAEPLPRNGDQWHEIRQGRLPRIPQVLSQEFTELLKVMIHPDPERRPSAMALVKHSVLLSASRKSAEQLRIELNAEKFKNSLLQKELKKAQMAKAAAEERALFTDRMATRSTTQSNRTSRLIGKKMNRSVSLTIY

Bounds are passed on as bounds.

For `CCn1c(=O)c2cnc(Nc3cccc(-c4ccccc4)c3)nc2n1-c1cccc(OC2CCNCC2)n1` [Compound 338, 6-(3-biphenylylamino)-2-ethyl-1-[6-(4-piperidyloxy)-2-pyridyl]-1,2-dihydro-3H-1,2,5,7-tetraazainden-3-one], the concentration giving a half-maximal response (EC50) lay in the range of 100 to 500 nM.

Regarding `CCn1c(=O)c2cnc(Nc3cccc(-c4ccccc4)c3)nc2n1-c1cccc(OC2CCN(C)CC2)n1` [Compound 339, 6-(3-biphenylylamino)-2-ethyl-1-[6-(1-methyl-4-piperidyloxy)-2-pyridyl]-1,2-dihydro-3H-1,2,5,7-tetraazainden-3-one], the EC50 was less than 100 nM.

The term EC50 denotes the concentration that produces a half-maximal response.

For the origin of these results see US20260364080A1, “PYRAZOLO-PYRIMIDINONE COMPOUNDS FOR USE IN METHODS OF INHIBITING WEE1 A KINASE” (Acrivon Therapeutics, Inc., priority 2023, published 2026).
